This is an account of results in ChEMBL document CHEMBL4725451, “Discovery of Tricyclic Xanthines as Agonists of the Cannabinoid-Activated Orphan G-Protein-Coupled Receptor GPR18” (ACS Med Chem Lett, 2020).

Amino acid sequences for entries named in this document (tags omitted). A change or cut given only in a name is not applied to a line headed by its entry.
UniProt Q9Y2T6: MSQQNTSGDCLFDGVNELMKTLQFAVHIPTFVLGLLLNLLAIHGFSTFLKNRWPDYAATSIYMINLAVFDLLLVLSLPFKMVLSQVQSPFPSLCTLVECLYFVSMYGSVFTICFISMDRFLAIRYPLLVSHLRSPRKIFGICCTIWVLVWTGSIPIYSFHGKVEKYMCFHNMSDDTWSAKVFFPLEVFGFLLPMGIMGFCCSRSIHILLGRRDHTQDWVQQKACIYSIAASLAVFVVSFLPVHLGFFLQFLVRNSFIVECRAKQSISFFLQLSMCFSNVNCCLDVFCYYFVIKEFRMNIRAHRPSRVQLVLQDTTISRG

Assay [1] has as its target T1, N-arachidonyl glycine receptor (Homo sapiens) (UniProt Q14330).
T1 sequence (whole entry): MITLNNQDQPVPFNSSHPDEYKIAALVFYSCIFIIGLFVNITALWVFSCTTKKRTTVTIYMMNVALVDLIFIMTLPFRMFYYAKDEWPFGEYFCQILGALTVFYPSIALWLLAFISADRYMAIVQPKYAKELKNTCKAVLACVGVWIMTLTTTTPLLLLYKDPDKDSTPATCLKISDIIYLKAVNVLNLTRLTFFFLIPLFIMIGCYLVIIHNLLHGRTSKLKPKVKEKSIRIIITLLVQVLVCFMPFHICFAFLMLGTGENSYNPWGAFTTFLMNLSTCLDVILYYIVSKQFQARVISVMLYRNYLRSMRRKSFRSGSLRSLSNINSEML
Kind of assay: Agonist activity at Prolink1-tagged human GPR18 receptor expressed in CHO cells assessed as induction of beta-arrestin recruitment at 10 uM after 90 mins by beta-galactosidase based topcount luminescence analysis relative to control. In kind it is cell-based. The method in brief: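 CHO cells stably expressing human GPR18, β-arrestin enzyme-complementation assay with luminescence read-out. Test compound at 10 μM single concentration; signal normalized to that of 10 μM Δ9-THC.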
On the technique in general: Arrestin recruitment assays detect the binding of arrestin to an activated receptor.

The target of assay [2] is T2, G-protein coupled receptor 55 (Homo sapiens, UniProt Q9Y2T6). Kind of assay: Agonist activity at Prolink1-tagged human GPR55 receptor expressed in CHO cells assessed as induction of beta-arrestin recruitment at 10 uM after 90 mins by beta-galactosidase based topcount luminescence analysis relative to control. The class given is cell-based. A digest of the protocol:
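CHO cells stably expressing GPR55, β2-arrestin recruitment detected by enzyme complementation and luminescence. Compounds tested at 10 μM; effect normalized to signal from 1 μM LPI.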

For assay [3], the target named is T2, G-protein coupled receptor 55. Kind of assay: Antagonist activity at Prolink1-tagged human GPR55 receptor expressed in CHO cells assessed as inhibition of lysophosphatidylinositol-induced beta arrestin recruitment at 10 uM after 90 mins by beta-galactosidase based topcount luminescence analysis relative to control. In kind it is functional, cell-based. A digest of the protocol:
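GPR55-expressing CHO cells, β-arrestin complementation luminescence. Percent inhibition by test compound at 10 μM of the response to 1 μM LPI.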

With `CCCCC/C=C\C/C=C\C/C=C\C/C=C\CCCC(=O)NCC(=O)O` [ARACHIDONOYL GLYCINE], the Activity in assay [1] was 10%.

Turning to `Cn1c(=O)c2c(nc3n2CCN3CCc2c[nH]c3ccccc23)n(C)c1=O`, the Activity in assay [2] turned out to be 20%. Further, in assay [3], the inhibition (in general, the relative decrease from the control value, in per cent) came to 27%.

Take `C=C(C)[C@@H]1CCC(C)=C[C@H]1c1c(O)cc(O)cc1CCCCC`: the Activity in assay [1] is -50%.

For `Cn1c(=O)c2c(nc3n2CCCCN3CCc2c[nH]c3ccccc23)n(C)c1=O`, in assay [2], the Activity is 38%. The inhibition in assay [3] turned out to be 21%.
